Test results from ChEMBL document CHEMBL1136157, “Synthesis of 3a,4-dihydro-3H-[1]benzopyrano[4,3-c]isoxazoles, displaying combined 5-HT uptake inhibiting and alpha(2)-adrenoceptor antagonistic activities: a novel series of potential antidepressants” (Bioorg Med Chem Lett, 2003).

By UniProt entry, the sequences of proteins in these tests, tags left out.
UniProt P08913, whole entry: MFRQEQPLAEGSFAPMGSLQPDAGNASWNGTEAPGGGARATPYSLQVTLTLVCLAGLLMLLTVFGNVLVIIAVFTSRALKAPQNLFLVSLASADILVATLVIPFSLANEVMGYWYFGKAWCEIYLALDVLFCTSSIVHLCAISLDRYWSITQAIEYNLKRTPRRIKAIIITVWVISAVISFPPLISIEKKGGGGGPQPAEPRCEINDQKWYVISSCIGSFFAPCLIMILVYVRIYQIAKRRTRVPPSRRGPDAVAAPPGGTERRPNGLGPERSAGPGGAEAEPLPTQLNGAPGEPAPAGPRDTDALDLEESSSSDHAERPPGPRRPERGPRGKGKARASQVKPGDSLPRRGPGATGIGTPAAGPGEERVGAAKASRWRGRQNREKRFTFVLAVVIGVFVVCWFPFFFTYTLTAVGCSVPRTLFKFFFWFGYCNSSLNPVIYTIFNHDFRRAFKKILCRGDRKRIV

What follows are compounds tested against Alpha-2A adrenergic receptor (Homo sapiens, UniProt P08913) (assay: In vitro binding affinity towards human alpha-2A adrenergic receptor using [3H]rauwolscine).

Compound	Ki [nM]
COc1cccc2c1CCC[C@H]2CN(C)CCc1ccc2ccoc2c1	2.4
COc1cc2c(cc1OC)C1=NOC(CN3CCN(C/C=C(\C)c4ccccc4)CC3)C1CO2 (centres undefined)	1.4
COc1cc2c(cc1OC)C1=NO[C@@H](CN3CCN(C/C=C\c4ccccc4)CC3)[C@@H]1CO2	23
COc1cc2c(cc1OC)C1=NOC(CN3CCN(C/C(C)=C/c4ccccc4)CC3)C1CO2 (centres undefined)	0.8
COc1cc2c(cc1OC)C1=NOC(CN3CCN(C/C=C/c4ccccc4)CC3)C1CO2 (centres undefined)	8.8
COc1cc2c(cc1OC)C1=NOC(CN3CCN(Cc4ccc5ccccc5c4)CC3)C1CO2 (centres undefined)	5
COc1cc2c(cc1OC)C1=NO[C@@H](CN3CCN(C/C=C/c4ccccc4)CC3)[C@@H]1CO2 (stereo in doubt; (+)5)	2.6
COc1cc2c(cc1OC)C1=NO[C@@H](CN3CCN(C/C(C)=C/c4ccccc4)CC3)[C@@H]1CO2 (stereo in doubt; (+)15f)	0.3
COc1cc2c(cc1OC)C1=NO[C@@H](CN3CCN(C/C=C(\C)c4ccccc4)CC3)[C@@H]1CO2 (stereo in doubt; (+)15g)	0.3
COc1cc2c(cc1OC)C1=NO[C@@H](CN3CCN(Cc4ccc5ccccc5c4)CC3)[C@@H]1CO2 (stereo in doubt; (+)15h)	1.3
COc1cc2c(cc1OC)C1=NO[C@@H](CN3CCN(C/C=C/c4ccccc4)CC3)[C@@H]1CO2 (stereo in doubt; (-)5)	25
COc1cc2c(cc1OC)C1=NO[C@@H](CN3CCN(C/C(C)=C/c4ccccc4)CC3)[C@@H]1CO2 (stereo in doubt; (-)15f)	16
COc1cc2c(cc1OC)C1=NO[C@@H](CN3CCN(C/C=C(\C)c4ccccc4)CC3)[C@@H]1CO2 (stereo in doubt; (-)15g)	30
COc1cc2c(cc1OC)C1=NO[C@@H](CN3CCN(Cc4ccc5ccccc5c4)CC3)[C@@H]1CO2 (stereo in doubt; (-)15h)	93
